The series is described as follows: Half life in mouse liver microsomes. The class given is ADME, Microsome.

In the case of `COc1cc(CCC(C)NCc2ccc(C(F)(F)F)cc2)ccc1O` (stereo unspecified), the half-life (in general, the time needed for the level to fall by half in the phase considered) worked out at 16 min.
